The values that follow are results of earlier work, collected in patent US8361509B2, “Pharmaceutical dosage forms for the release of active compounds” (Laboratorios Farmacéticos Rovi, S.A., priority 2000, dated 2013).

The conditions of the data set: administered intestinally.

For insulin, the “increase in bioavailability on reduction in particle size from 180-230 μm to <43 μm” value is 18 fold.
